Measurements reported in PubChem BioAssay AID1159606 (Sanford-Burnham Center for Chemical Genomics, 2016).
The list shows a part of the results, in another mix than the full data. Some structures show a salt or complex split into parts, the way the source records it. Activity calls are given as the source filed them. Cut-off read from the data, not from the text of the source: active = inhibition above about 50%; inactive = the rest.

Test: blockers of TWEAK-induced Fn14 reporter activity – luciferase reporter cells, uHTS, primary screen (AID 1159606)
Conditions: TWEAK-stimulated Fn14 reporter cells, luciferase luminescence, 8 h; at 10 µM; active compounds read high

SMILES	inhibition
O=[N+]([O-])c1ccc(OP2(=O)COCCO2)cc1 (stereo not given)	inactive: 18.2%
O=[N+]([O-])c1cc([N+](=O)[O-])c(NCC2CCS(=O)(=O)C2)c([N+](=O)[O-])c1 (stereo not given)	inactive: 44.8%
Cc1cc(-c2cccc3ccccc23)c(C)cn1.O=[N+]([O-])c1cc([N+](=O)[O-])c(O)c([N+](=O)[O-])c1	inactive: 7.6%
Cc1c(C(c2ccc3c(c2)OCO3)c2c(C)n(C)n(-c3ccccc3)c2=O)c(=O)n(-c2ccccc2)n1C.O=[N+]([O-])c1cc([N+](=O)[O-])c(O)c([N+](=O)[O-])c1	inactive: -4.76%
CP(=O)(Nc1ccc(SC(F)(F)F)cc1)Oc1ccc(F)cc1 (stereo not given)	inactive: -5.34%
CCOP(C)(=S)SCC(=O)NC(C)(CC)C(=O)O (stereo not given)	inactive: 2.82%
CP(=O)(Nc1ccc2c(c1)OCCO2)Oc1ccccc1 (stereo not given)	active: 66%
Cc1ccccc1NP(C)(=O)Nc1ccccc1C	inactive: -13%
O=[N+]([O-])c1cc([N+](=O)[O-])c(C(F)(F)F)c([N+](=O)[O-])c1O	inactive: 1.93%
O=[N+]([O-])c1cc([N+](=O)[O-])c(Nc2ccc(Cl)cc2)c([N+](=O)[O-])c1	active: 75.5%
CP(=O)(Nc1ccccc1F)Oc1ccccc1 (stereo not given)	inactive: -4.79%
CC(C)c1ccc(OP(C)(=O)Nc2ccc(SC(F)(F)F)cc2)cc1 (stereo not given)	inactive: 0.91%
O=C(OC1CN2CCC1CC2)c1ccc([N+](=O)[O-])cc1 (stereo not given)	inactive: -5.91%
O=C(OCCN1CCN(CCOCc2ccccc2)CC1)C(O)(c1ccccc1)c1ccccc1	inactive: 5.68%
COc1ccc2c(c1O)-c1c(O)c(OC)cc3c1[C@H](C2)[N+](C)(C)CC3.O=[N+]([O-])c1cc([N+](=O)[O-])c([O-])c([N+](=O)[O-])c1[O-]	inactive: -0.12%
CCN(CC)CCCNc1ccccc1[N+](=O)[O-].O=[N+]([O-])c1cc([N+](=O)[O-])c(O)c([N+](=O)[O-])c1	inactive: -3.19%
CCOC(=O)c1ccc(NP(C)(=O)Oc2ccc(F)cc2)cc1 (stereo not given)	inactive: 3.33%
COc1ccc(OP(C)(=O)Nc2ccc(SC(F)(F)F)cc2)cc1 (stereo not given)	inactive: -5.49%
Cc1c([N+](=O)[O-])cc([N+](=O)[O-])c(Br)c1[N+](=O)[O-]	inactive: -16%
CCN(CC)CCCOC(=O)C(O)(c1ccccc1)C1CCCCC1 (stereo not given)	inactive: 3.05%
CP(=O)(Nc1ccccc1)Oc1ccc(F)cc1 (stereo not given)	inactive: 11.2%
O=[N+]([O-])c1cc([N+](=O)[O-])c(OC2CCCCC2O)c([N+](=O)[O-])c1 (stereo not given)	inactive: 5.8%
CCCCCOc1ccc(NP(C)(=O)Oc2ccc(Cl)cc2Cl)cc1 (stereo not given)	inactive: -2.33%
Cc1cc(C)cc(OP(C)(=O)Nc2cccc(C(F)(F)F)c2)c1 (stereo not given)	inactive: 1.82%
O=C1C(O)=C([N+](=O)[O-])C(=O)C(O)=C1[N+](=O)[O-]	inactive: 8.75%

SMILES	inhibition
COc1ccccc1OP(C)(=O)Nc1ccc(C)c(C)c1 (stereo not given)	inactive: 10.1%
COc1ccc(OP(C)(=O)Nc2ccccc2Br)cc1 (stereo not given)	inactive: -2.69%
CP(=O)(Nc1ccc(Cl)cc1Cl)Oc1ccccc1 (stereo not given)	inactive: -13.3%
CCCCCCCCCCCCCCCC1C[N+](C)(C)CCOP(C)(=O)O1 (stereo not given)	inactive: -86.4%
CP(=O)(OCCOc1ccccc1)OCCOc1ccccc1	inactive: 3.28%
COc1ccccc1OP(C)(=O)Nc1ccc(Br)cc1 (stereo not given)	inactive: 14.4%
COc1ccc(OP(C)(=O)Nc2ccccn2)cc1 (stereo not given)	inactive: 34%
CN(C)CCOC(=O)C(O)(c1ccccc1)C1CCCC1 (stereo not given)	inactive: -36.1%
Cc1c(NP(C)(=O)Oc2ccc(C(C)C)cc2)c(=O)n(-c2ccccc2)n1C (stereo not given)	inactive: -16%
O=[N+]([O-])c1cc([N+](=O)[O-])c(Nc2ccccn2)c([N+](=O)[O-])c1	inactive: 30.9%
COc1ccccc1OP(C)(=O)Nc1ccc(C)cc1C (stereo not given)	inactive: -3.91%
CP(=O)(Nc1ccccn1)Oc1ccccc1 (stereo not given)	inactive: -14.9%
CCc1ccc(OP(C)(=O)O)cc1	inactive: 6.66%
COc1ccc(OP(C)(=O)Nc2ccc(Br)cc2)cc1 (stereo not given)	inactive: 6.87%
CCN(CC)CC(O)COC(=O)C(O)(c1ccccc1)C1CCCCC1 (stereo not given)	inactive: -15.6%
O=C(OCCCN1CCCC1)C(O)(c1ccccc1)C1CCCCC1 (stereo not given)	inactive: -5.92%
COc1ccccc1OP(C)(=O)Nc1c(C)n(C)n(-c2ccccc2)c1=O (stereo not given)	inactive: -7.86%
CCc1ccc(OP(C)(=O)Nc2cccnc2)cc1 (stereo not given)	inactive: 19.9%
CP(=O)(Oc1ccccc1)N1CCOC1=O (stereo not given)	inactive: 8.58%
COc1ccccc1OP(C)(=O)Nc1ccccc1Br (stereo not given)	inactive: -18.6%
CC(C)(C)c1ccc(OP(C)(=O)O)cc1	inactive: 15.4%
CP(=O)(Nc1ccc(Cl)cc1)Oc1ccc(F)cc1 (stereo not given)	inactive: 0.41%
CN(C)C(=O)c1c([N+](=O)[O-])cc([N+](=O)[O-])cc1[N+](=O)[O-]	inactive: 9.08%
CCOC(=O)c1ccc(NP(C)(=O)Oc2ccc(Cl)cc2)cc1 (stereo not given)	inactive: 5.51%
CP(=O)(OC12CC3CC(CC(C3)C1)C2)OC12CC3CC(CC(C3)C1)C2	inactive: 1.35%
